Values quoted from earlier work as cited in patent US20210268122A1, “INHIBITION OF S[…] PROTEIN INHIBITORS OF CYSTEINE PROTEASES” (DYVE BIOSCIENCES, INC., priority 2017, published 2021).

Experiments:
[1] = system: B16-F10 (murine melanoma); conditions: cited from earlier work
[2] = system: LL/2 (murine lung); conditions: LL/2 tumors; cited from earlier work
[3] = system: HCT116 (human colon); conditions: cited from earlier work
[4] = system: MDA-MB-231 (human breast); conditions: MDA-MB-231 tumors; cited from earlier work
[5] = system: PC3M (human prostate); conditions: PC3M tumors; cited from earlier work

## NCCCC[C@H](N)C(=O)O [lysine buffer, lysine]
[1]
  response of tumors to lysine buffer therapy (metastasis): resistant
[2]
  response of tumors to lysine buffer therapy (metastasis): resistant
[3]
  response of tumors to lysine buffer therapy (metastasis): resistant
[4]
  metastasis under lysine buffers: potentially inhibited
[5]
  metastasis under lysine buffers: potentially inhibited
